Data reported in patent publication US20210101879A1, “AMYLOID PROTEIN-SELECTIVE BACE INHIBITORS (ASBIs) FOR ALZHEIMER?S DISEASE” (The Regents of the University of California, priority 2018, published 2021).
Values joined by “and” are separate entries in the source; they are usually repeats but may differ in a detail not shown here. Identical values can stand only once.

Chains of the proteins cited; added tags and fusions are not shown. Residues count along the entry.
UniProt P56817, 46-501 limits assumed: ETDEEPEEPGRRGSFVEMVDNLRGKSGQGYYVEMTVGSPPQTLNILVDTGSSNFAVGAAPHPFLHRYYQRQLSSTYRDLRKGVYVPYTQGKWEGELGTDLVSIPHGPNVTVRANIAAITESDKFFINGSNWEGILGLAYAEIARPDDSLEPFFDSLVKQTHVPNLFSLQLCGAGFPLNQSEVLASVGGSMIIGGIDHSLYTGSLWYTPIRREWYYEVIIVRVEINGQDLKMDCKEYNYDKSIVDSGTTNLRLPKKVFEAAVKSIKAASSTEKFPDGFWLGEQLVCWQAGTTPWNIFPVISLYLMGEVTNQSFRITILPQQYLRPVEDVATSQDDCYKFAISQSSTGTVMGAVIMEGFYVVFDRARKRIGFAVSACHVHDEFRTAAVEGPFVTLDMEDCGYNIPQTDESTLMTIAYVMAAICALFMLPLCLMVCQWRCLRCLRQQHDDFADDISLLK

Key:
[1] = system: CHO-7W cells (stably transfected with human amyloid precursor protein wildtype); experiment: CHO-7W cell assay (AlphaLISA of media); assay type: cell-based, Chinese hamster; details: treatment for 24 hours
Description: For the assay, 50 μL of CHO-7W cells were added to each well at 4×10^5 cells/mL. Then, 50 μL of inhibitor, prepared for tested concentrations, were added to appropriated wells and incubated for 24 hours at 37° C. Afterwards, media from each well is collected and assayed using an AlphaLISA assay for respective analytes.

BACE-1 = BACE-1 (Homo sapiens (Human), UniProt P56817); experiment: cell-free BACE enzyme assay with P5-P5′ substrate; assay type: biochemical; details: for BACE inhibition in the P5-P5′ assay (dose-response): enantiomer peaks of FAH-65

- soluble amyloid precursor protein beta (sAPPβ) [1]: dose-response inhibition
- BACE inhibition in the P5-P5′ assay (dose-response) (BACE-1; listed as FAH-65 peak 1): dose-response BACE inhibition
- BACE inhibition in the P5-P5′ assay (dose-response) (BACE-1; listed as FAH-65 peak 2): did not
- IC50 (BACE-1; read-out: BACE1 IC50, cell-free, several replicate values per cell, some flagged 's' (flag not defined), listed as FAH-65 Pk2): 5.2 nM and 7.9 nM
SMILES: Cc1cc(C2(c3cccc(-c4cncnc4)c3)N=C(N)N(C)C2=O)ccc1OC(F)F (single isomer, unassigned)
- amyloid-beta (Aβ) [1]: dose-response inhibition
